Assay results: ChEMBL document CHEMBL5715957

How the values were obtained:
Homo sapiens [1] = organism: Homo sapiens; test: Selectivity ratio of Ki for human DRD4 to Ki for DRD4 F2.61V / L3.28F mutant (unknown origin)
Homo sapiens [2] = organism: Homo sapiens; test: Selectivity ratio of Ki for human DRD4 to Ki for DRD2 (unknown origin)
Homo sapiens [3] = organism: Homo sapiens; test: Selectivity ratio of Ki for human DRD4 to Ki for DRD3 (unknown origin)

Measured: Ratio Ki

O=c1cc(CNCCCOc2cccnc2)[nH]c2ccc(F)cc12
> 3300: all assays above

Cc1ccc2nc(CNCCCOc3ccccc3)cc(O)c2c1
> 3300: all assays above
